Drawing on US6482948B1, “Thienopyrimidine compounds and salts thereof and process for the preparation of the same” (Nippon Soda Co., Ltd., priority 1999, dated 2002), this text covers IC50 and EC50 for one compound.

Structures are written as SMILES. Where only a bound is given, the exact number is not on record here.

In test [1] the target is PDE 1 (Ca-calmodulin activatable PDE). Kind of test: Phosphodiesterase inhibiting activity, PDE 1. Particulars: read-out: Inhibition of PDE Activity: IC50 PDE 1; isozyme from dog heart; 1 μM [3H]-cAMP or [3H]-cGMP.
For test [2], the target named is PDE 4 (cGMP non-inhibitable cAMP PDE). Description: Phosphodiesterase inhibiting activity, PDE 4. Particulars: read-out: Inhibition of PDE Activity: IC50 PDE 4; isozyme from dog kidney; 1 μM [3H]-cAMP or [3H]-cGMP.
The next test relates to thoracic aortas. Kind of test: Vasodilating activity, phenylephrine-contracted thoracic aorta ring preparations (Magnus method). Particulars: read-out: Vasodilating Activity EC50, rat thoracic aorta ring preparations contracted with 1 μM phenylephrine, 37° C., drug added cumulatively.

In general, IC50 refers to the concentration that gives 50% inhibition. As to `CCCc1nn(C)c2c(=O)[nH]c(-c3cc(S(=O)(=O)N4CCN(C)CC4)ccc3OCC)nc12`, the 50% inhibitory concentration (IC50) in test [1] was 2000 nM; in test [2], over 10000 nM. Besides, in the test with thoracic aortas, the EC50 came to 6.1 nM.
